Experimental findings from patent EP4825855A1, “COMPOUND CONTAINING PYRAZOLE RING AND BICYCLIC HETEROARYL GROUP, PHARMACEUTICAL COMPOSITION THEREOF AND USE THEREOF” (dated 2026) are described below.

The chains behind the UniProt entries cited, without tags or fusion partners. Where a name states a change or a piece, a line headed by the entry shows the natural chain unless it says otherwise.
UniProt Q06187, whole entry: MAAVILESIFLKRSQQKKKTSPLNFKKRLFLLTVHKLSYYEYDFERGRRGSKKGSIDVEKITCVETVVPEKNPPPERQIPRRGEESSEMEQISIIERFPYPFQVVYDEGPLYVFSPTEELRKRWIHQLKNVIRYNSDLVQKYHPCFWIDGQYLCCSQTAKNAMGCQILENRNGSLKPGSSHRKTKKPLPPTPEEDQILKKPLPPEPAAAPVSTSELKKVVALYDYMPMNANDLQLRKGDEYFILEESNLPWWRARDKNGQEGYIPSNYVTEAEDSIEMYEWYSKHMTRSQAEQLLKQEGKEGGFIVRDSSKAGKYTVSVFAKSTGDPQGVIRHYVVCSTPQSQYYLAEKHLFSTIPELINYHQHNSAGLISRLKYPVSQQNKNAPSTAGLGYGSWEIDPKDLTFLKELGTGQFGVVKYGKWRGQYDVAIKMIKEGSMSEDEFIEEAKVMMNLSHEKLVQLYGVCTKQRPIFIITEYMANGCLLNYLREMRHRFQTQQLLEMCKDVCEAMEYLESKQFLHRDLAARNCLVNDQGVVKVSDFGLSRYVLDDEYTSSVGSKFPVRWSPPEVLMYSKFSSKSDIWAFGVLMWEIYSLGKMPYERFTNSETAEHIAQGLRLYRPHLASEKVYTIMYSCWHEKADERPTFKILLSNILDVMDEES
UniProt Q06187, whole entry C481S: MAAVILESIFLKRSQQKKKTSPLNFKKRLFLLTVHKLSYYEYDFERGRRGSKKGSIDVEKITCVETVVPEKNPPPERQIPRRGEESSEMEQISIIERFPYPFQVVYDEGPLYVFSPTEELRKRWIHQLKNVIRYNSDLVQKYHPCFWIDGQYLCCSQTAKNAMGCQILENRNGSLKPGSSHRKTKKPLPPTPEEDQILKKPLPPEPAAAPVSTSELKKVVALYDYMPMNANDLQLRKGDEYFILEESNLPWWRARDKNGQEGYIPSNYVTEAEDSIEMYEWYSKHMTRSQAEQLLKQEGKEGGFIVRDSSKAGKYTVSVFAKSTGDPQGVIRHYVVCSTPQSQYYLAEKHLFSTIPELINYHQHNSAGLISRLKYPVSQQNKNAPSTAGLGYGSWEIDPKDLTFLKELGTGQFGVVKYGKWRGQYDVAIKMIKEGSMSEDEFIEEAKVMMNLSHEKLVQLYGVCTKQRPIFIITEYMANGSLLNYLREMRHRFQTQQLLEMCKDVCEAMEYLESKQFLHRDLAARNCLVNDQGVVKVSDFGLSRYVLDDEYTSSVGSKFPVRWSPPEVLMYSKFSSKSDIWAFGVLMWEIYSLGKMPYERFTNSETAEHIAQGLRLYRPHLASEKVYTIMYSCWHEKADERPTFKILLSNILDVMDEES

One series has as its target BTK(WT) kinase (Homo sapiens, UniProt Q06187). The series is described as follows: Inhibitory activity against BTK(WT) kinase. The note with it: read-out: BTK(WT) kinase inhibition IC50(nM ). The protocol:
(§1) BTK kinase solution (concentration: 0.003 ng/µL) was added to assay wells at 6 µL/well, and different compounds dissolved in DMSO were added to the assay wells separately using a nanoliter pipettor, such that the final concentrations of the compounds were 1000 nM to 0.244 nM. The wells were set in duplicate, and a control well was set. After a 30-min incubation of the above system, ATP (concentration: 50 µM) was mixed with ULight-poly GT substrate (manufacturer: PerkinElmer, concentration: 0.5 µM) in a ratio of 1:1, and the mixture was added to the assay wells at 4 µL/well. The resulting mixture was left to react at room temperature for 2 h, and then 5 µL of EDTA was added to terminate the reaction, followed by the addition of 5 µL of a detection antibody (manufacturer: PerkinElmer, concentration: 8 nM). The mixture was incubated at room temperature for 1 h. The assay was performed using a PerkinElmer Envision multifunctional microplate reader (excitation: 320 nm, emission: 615 nm/665 nm), and IC50 was calculated by four-parameter fitting.

A short description of series [1]: In vitro stability in liver microsomes (human). The note with it: 37 °C, NADPH. The protocol:
(§2) 300 µL of the final incubation system contains 30 µL of liver microsomes (protein concentration: 0.15 mg/mL), 30 µL of NADPH + MgCl2, 3 µL of the test compound (in acetonitrile), and 237 µL of PBS buffer (pH 7.4). The proportion of the organic solvent (acetonitrile) was 1%. Samples were prepared in duplicate of 0.3 mL for each species. Tubes each containing 270 µL of a mixed solution of substrate and enzyme and NADPH were pre-incubated at 37 °C for 5 min. 30 µL of NADPH + MgCl2 was added and the mixture was mixed. 50 µL of the mixture was taken at 0 min, 15 min, 30 min, and 60 min, and 300 µL of glacial acetonitrile containing an internal standard was added to terminate the reaction.
(§3) 300 µL of glacial acetonitrile containing an internal standard (20 ng/mL diazepam) was added to 50 µL of the incubated sample for precipitation. The mixture was vortexed for 5 min, and centrifuged (12,000 rpm, 4 °C) for 10 min. 75 µL of supernatant was taken and diluted with 75 µL of ultrapure water. After being homogeneously mixed, 0.5 µL of the resulting sample was injected for analysis.
Background: Liver microsomes are a subcellular fraction often used to study metabolism.

The target in the next series is BTK(C481S) kinase (Homo sapiens, UniProt Q06187, C481S). In words: Inhibitory activity against BTK(C481S) kinase. The note with it: read-out: BTK(C481S) kinase inhibition IC50(nM ). The protocol: as §1, with “BTK(C481S)” for “BTK”, “0.006” for “0.003”, “fitting. The test results are shown in Table 3, where A represents: the IC50 value ≤ 10 nM.” for “fitting.”
In a further series the test system is OCI-LY10 cells. In words: Inhibitory activity against OCI-LY10 cell proliferation (CCK-8). The note with it: 72 h incubation. On the procedure:
OCI-LY10 cells in a good growth state were collected into a centrifuge tube, adjusted to a cell density of 9 × 10^4 cells/mL using an assay medium (1640 + 10% FBS), and seeded onto a 96-well plate (100 µL/well). The cells were incubated overnight in a cell incubator. Compounds were added using a nanoliter pipettor such that the final concentrations of the compounds were 1000 nM to 1.64 nM (the addition was performed in duplicate). Meanwhile, a control was set. After 72 h of incubation in the cell incubator, the assay reagent CCK-8 (manufacturer: Dojindo Laboratories; 10 µL/well) was added. After 4 h of incubation in the cell incubator, the absorbance values were measured at 450 nm on a PerkinElmer Envision microplate reader. A four-parameter analysis was performed, a dose-response curve was fitted, and IC50 was calculated. Table 1. Inhibitory activity against OCI-LY10 cell proliferation

Series [2] can be described thus: In vitro stability in liver microsomes (mouse). The following applies: 37 °C, NADPH. On the procedure:
as §2, §3

By IC50 is commonly meant the concentration at which inhibition is half-maximal.

As to `COc1ccc(F)c2ccnc(NCc3ccc(-n4ncc(Nc5ccc(NC6CCC(N(C)C)CC6)c(C(C)O)n5)c4C(N)=O)cc3)c12` (single isomer, unassigned), the IC50 on BTK(WT) kinase, at BTK(C481S) kinase and with OCI-LY10 cells was less than 10 nM each time. Further, in series [1], the “Human liver microsome (Remaining amount % at 60 min)” value is not below 60%.

`COC(c1nc(Nc2cnn(-c3ccc(CNC(=O)c4cc(F)cc5cccnc45)cc3)c2C(N)=O)ccc1NC1CCN(C)CC1)C(F)(F)F` (stereo not shown): the IC50 on BTK(WT) kinase, on BTK(C481S) kinase and with OCI-LY10 cells was less than 10 nM in each case. Besides, the “Human liver microsome (Remaining amount % at 60 min)” value in series [1] is on record as not below 60%. Besides, the “Mouse liver microsome (Remaining amount % at 60 min)” value in series [2] was not below 50%.

For the compound `CN(C)C1CCN(c2ccc(Nc3cnn(-c4ccc(CNC(=O)c5cc(F)cc6cccnc56)cc4)c3C(N)=O)nc2)CC1`, the IC50 at BTK(WT) kinase, at BTK(C481S) kinase and in the series on OCI-LY10 cells was less than 10 nM in each case. Also, the “Human liver microsome (Remaining amount % at 60 min)” value in series [1] is given as not below 60%.

With `COC(c1nc(Nc2cnn(-c3ccc(CNC(=O)c4cc(F)cc5cccnc45)cc3)c2C(N)=O)ccc1N1CCC(N(C)C)CC1)C(F)(F)F` (stereo not shown), the half-maximal inhibitory concentration (IC50) at BTK(WT) kinase, at BTK(C481S) kinase and in the series on OCI-LY10 cells was less than 10 nM in each case. Further, the “Human liver microsome (Remaining amount % at 60 min)” value in series [1] is given as not below 60%. In addition, the “Mouse liver microsome (Remaining amount % at 60 min)” value in series [2] is not below 50%.

Take `CN(C)C1CCC(Nc2ccc(Nc3cnn(-c4ccc(CNC(=O)c5cc(F)cc6cccnc56)cc4)c3C(N)=O)nc2C(O)C(F)(F)F)CC1` (single isomer, unassigned): the IC50 at BTK(WT) kinase, at BTK(C481S) kinase and with OCI-LY10 cells was less than 10 nM each time. The “Human liver microsome (Remaining amount % at 60 min)” value in series [1] is listed as not below 60%. Besides, the “Mouse liver microsome (Remaining amount % at 60 min)” value in series [2] is recorded as not below 50%.

Consider `COc1ccc(F)c2cc(C)nc(NCc3ccc(-n4ncc(Nc5ccc(N6CCC(N(C)C)CC6)c(C(OC)C(F)(F)F)n5)c4C(N)=O)cc3)c12` (single isomer, unassigned), for which the IC50 at BTK(WT) kinase and on BTK(C481S) kinase was less than 10 nM in each case. Also, in series [1], the “Human liver microsome (Remaining amount % at 60 min)” value is listed as not below 60%. Further, the “Mouse liver microsome (Remaining amount % at 60 min)” value in series [2] is on record as not below 50%.

As to `CCC(OC)c1nc(Nc2cnn(-c3ccc(CNC(=O)c4cc(F)cc5cccnc45)cc3)c2C(N)=O)ccc1N1CCC(N(C)C)CC1` (stereo not shown), the IC50 on BTK(WT) kinase and on BTK(C481S) kinase was less than 10 nM in each case. Further, the “Human liver microsome (Remaining amount % at 60 min)” value in series [1] is given as not below 60%. In addition, the “Mouse liver microsome (Remaining amount % at 60 min)” value in series [2] is not below 50%.

For the compound `COc1ccc(F)c2ccnc(NCc3ccc(-n4ncc(Nc5ccc(N6CCC(N(C)C)CC6)c(C(O)C(F)(F)F)n5)c4C(N)=O)cc3)c12` (stereo not shown), the IC50 on BTK(WT) kinase, at BTK(C481S) kinase and in the series with OCI-LY10 cells was less than 10 nM in each case. The “Human liver microsome (Remaining amount % at 60 min)” value in series [1] is listed as not below 60%. The “Mouse liver microsome (Remaining amount % at 60 min)” value in series [2] was not below 50%.

Regarding `COC(c1nc(Nc2cnn(-c3ccc(CNC(=O)c4cc(F)cc5cccnc45)cc3)c2C(N)=O)ccc1N1CCC(N(C)C)CC1)C1CC1` (stereo not shown), the IC50 at BTK(WT) kinase, at BTK(C481S) kinase and in the series on OCI-LY10 cells was less than 10 nM throughout. Besides, the “Human liver microsome (Remaining amount % at 60 min)” value in series [1] is not below 60%. The “Mouse liver microsome (Remaining amount % at 60 min)” value in series [2] is reported as not below 50%.

Turning to `COC(c1nc(Nc2cnn(-c3ccc(CNC(=O)c4cc(F)cc5cccnc45)cc3)c2C(N)=O)ccc1NC1CCN(C)CC1)C1CC1` (stereo not shown), the IC50 on BTK(WT) kinase, at BTK(C481S) kinase and with OCI-LY10 cells was less than 10 nM each time. Also, the “Human liver microsome (Remaining amount % at 60 min)” value in series [1] is given as not below 60%. Further, in series [2], the “Mouse liver microsome (Remaining amount % at 60 min)” value is on record as not below 50%.

On to `Cc1nc(Nc2cnn(-c3ccc(CNC(=O)c4cc(F)cc5cccnc45)cc3)c2C(N)=O)ccc1NC1CCN(C)CC1`, for which the IC50 on BTK(WT) kinase and on BTK(C481S) kinase was less than 10 nM in each case. The “Human liver microsome (Remaining amount % at 60 min)” value in series [1] was not below 60%. Moreover, the “Mouse liver microsome (Remaining amount % at 60 min)” value in series [2] is recorded as not below 50%.

As for `COc1ccc(F)c2ccnc(NCc3ccc(-n4ncc(Nc5ccc(N6CCC(N(C)C)CC6)c(C(OC)C6CC6)n5)c4C(N)=O)cc3)c12` (racemic), the IC50 on BTK(WT) kinase, at BTK(C481S) kinase and with OCI-LY10 cells was less than 10 nM throughout. The “Human liver microsome (Remaining amount % at 60 min)” value in series [1] is not below 60%. Moreover, the “Mouse liver microsome (Remaining amount % at 60 min)” value in series [2] is recorded as not below 50%.

With `COCCN1CCN(c2ccc(Nc3cnn(-c4ccc(CNc5nc(C)cc6c(F)ccc(OC)c56)cc4)c3C(N)=O)nc2C(OC)C(F)(F)F)CC1` (stereo not shown), the “Human liver microsome (Remaining amount % at 60 min)” value in series [1] is on record as not below 60%. Further, the “Mouse liver microsome (Remaining amount % at 60 min)” value in series [2] is listed as not below 50%.

For the compound `COc1ccc(F)c2ccnc(NCc3ccc(-n4ncc(Nc5ccc(NC6CCC(N(C)C)CC6)c(C(O)C6CC6)n5)c4C(N)=O)cc3)c12` (single isomer, unassigned), the half-inhibitory concentration (IC50) on BTK(WT) kinase, on BTK(C481S) kinase and in the series on OCI-LY10 cells was less than 10 nM in each case. In addition, the “Human liver microsome (Remaining amount % at 60 min)” value in series [1] is reported as not below 60%. Besides, in series [2], the “Mouse liver microsome (Remaining amount % at 60 min)” value is listed as not below 50%.

As for `COc1ccc(F)c2ccnc(NCc3ccc(-n4ncc(Nc5ccc(NC6CCC(N(C)C)CC6)c(C(O)C(F)(F)F)n5)c4C(N)=O)cc3)c12` (stereo not shown), the half-inhibitory concentration (IC50) at BTK(WT) kinase, at BTK(C481S) kinase and with OCI-LY10 cells was less than 10 nM in each case. Besides, the “Human liver microsome (Remaining amount % at 60 min)” value in series [1] is listed as not below 60%. The “Mouse liver microsome (Remaining amount % at 60 min)” value in series [2] is reported as not below 50%.

On to `CCC(O)c1nc(Nc2cnn(-c3ccc(CNc4nccc5c(F)ccc(OC)c45)cc3)c2C(N)=O)ccc1NC1CCC(N(C)C)CC1` (stereo not shown), for which the IC50 on BTK(WT) kinase, at BTK(C481S) kinase and in the series on OCI-LY10 cells was less than 10 nM in each case. Moreover, in series [1], the “Human liver microsome (Remaining amount % at 60 min)” value is recorded as not below 60%.

`CN1CCC(Nc2ccc(Nc3cnn(-c4ccc(CNC(=O)c5cc(F)cc6cccnc56)cc4)c3C(N)=O)nc2C(O)C2CC2)CC1` (stereo not shown): the IC50 at BTK(WT) kinase, on BTK(C481S) kinase and with OCI-LY10 cells was less than 10 nM in each case. Also, in series [1], the “Human liver microsome (Remaining amount % at 60 min)” value is on record as not below 60%. Moreover, in series [2], the “Mouse liver microsome (Remaining amount % at 60 min)” value is reported as not below 50%.
